Screening data as filed in PubChem BioAssay.
Rango-impB inh: prevents formation of the Rango-importin beta complex; AID 540263; Q14974; Potency, µM (doses to about 92.2 µM), inactives show top-dose inhibition of complex formation; 340,000 compounds, 0.031% hits; Rango CFP/YFP FRET sensor + importin beta, 45 min;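 further: 0% = DMSO wells and 100% = buffer wells lacking importin beta; nearly all actives have a fitted effect of over 15% in size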
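Inhibition scored from the CFP 486 nm/YFP 530 nm FRET ratio 45 min after adding 0.125 microM importin beta to 50 nM Rango biosensor preincubated 5 min with compound (room temperature, PBS with DTT, Tween-20, BSA). No-importin wells as positive control.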
Tb PFK inh: T. brucei PFK enzyme inhibition | O15648 | T. brucei PFK, ADP-Glo luminescence | Potency, µM (highest dose often 57.5 µM), for inactives: top-dose activity, negative = inhibition, most hits filed as inhibitors | 330,000 compounds, 0.17% hits | AID 485367; active means well fitted curve in the direction sought with a large enough effect; inconclusive means small, poorly fitted or top-dose-only effect, or another doubt; inactive means no such curve, though single readings can be large; an effect the other way counts as inactive or inconclusive;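 further: 0% = uninhibited 1x PFK enzyme wells and -100% = no-enzyme wells; nearly all actives have a fitted effect of over 60% in size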
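PFK 1.25 nM, F6P 0.5 mM, ATP 0.1 mM, 0.1 M TEA pH 8.0, 5 mM MgCl2, 0.01% Tween20, 0.1% BSA; 45 min RT. ADP-Glo readout. qHTS titration up to 57 uM; curves fitted, compounds curve-classed.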
BCR signal inh: inhibitors of chronic active B-cell receptor signaling; ABC-DLBCL IkBa-CBG/CBR reporter, luminescence ratio, 4 h; AID 493014; Potency, µM (series often up to 46.1 µM), for the others: top-dose activity change, negative = inhibition, hits mostly inhibitors; 340,000 compounds, 0.05% hits; active means well fitted inhibition curve with a large enough effect in the signal ratio, with a control signal flat, not every such curve was filed as active; inconclusive means small, poorly fitted or top-dose-only effect, or effect the other way, or a change in a side signal; the % refers to the signal ratio;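 further: plate controls were basal doxycycline-induced cells for no effect and cells given 10 µM MG132 for full effect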
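Compounds up to 46 uM were incubated four hours with TMD8 cells whose green CBG68 luciferase is fused to IkappaBalpha; red CBR luminescence normalised the signal, and concentration-effect curves were fitted to fusion, red and ratio data.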
LMNA splice mod: LMNA splicing modulation | Potency, µM (doses to about 46.1 µM), inactives show at the top dose ratio change, negative = inhibition, most hits filed as inhibitors | 200,000 compounds, 0.01% hits | AID 1487 | HeLa LMNA splicing GFP/RFP minigene ratio, 48 h; active means well fitted inhibition curve with a large enough effect in the signal ratio, with a control signal flat, not every such curve was filed as active; inconclusive means small, poorly fitted or top-dose-only effect, or effect the other way, or a change in a side signal; the % refers to the signal ratio; further: on the % scale 0 is the no-effect control and ±100 the full control effect
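S3 HeLa cells stably expressing lamin A-EGFP splicing minigene plus DsRed2, 600 cells/well, 48 h compound exposure at 37C. Laser-scanning cytometry; analysed as GFP (500-530 nm)/RFP (575-640 nm) total intensity ratio; 0.5% DMSO vehicle.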
Luc counter: blocks Kinase-Glo luciferase, a counter-screen artifact. Kinase-Glo luciferase, ATP luminescence, 8 min. Potency, µM (top dose mostly 38.3 µM), inactives show top-dose activity change, negative = inhibition, hits mostly inhibitors. 200,000 compounds, 0.28% hits; active means well fitted curve in the direction sought with a large enough effect; inconclusive means small, poorly fitted or top-dose-only effect, or another doubt; inactive means no such curve, though single readings can be large; an effect the other way counts as inactive or inconclusive; further: on the % scale 0 is the no-effect control and ±100 the full control effect; nearly all actives have a fitted effect of over 60% in size
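Recombinant Kinase-Glo luciferase, 10 uM ATP (linear range), luciferin; imidazole pH 7.2 / KCl / MgCl2 / Tween / BSA buffer; 8 min RT; luminescence.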
Rango dissoc inh: inhibition of RanGTP-driven Rango-importin beta dissociation | O95149+P62826 | Biochemical FRET Rango-importin beta, RanGTP-induced dissociation | Potency, µM (highest dose often 46.1 µM), for inactives: top-dose activity change, negative = inhibition | 340,000 compounds, 0.071% hits | AID 540253; further: % of control where 0% means no effect; nearly all actives have a fitted effect of over 45% in size
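Quantitative HTS using a FRET biosensor: 0.1 uM Rango, 0.25 uM importin beta, 0.6 uM Ran, 2 mM GTP, 0.2 uM RCC1 final, PBS with DTT, Tween-20 and BSA. Post-read taken 45 min after Ran addition.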
Numbers without * were called inactive; [ ] = dose if it differs, or a comment. Compounds with a hit are over-represented: about 0.44% of the library has one in this group of screens. Unless noted, the call rests on the fitted dose curve. Potency means the concentration at half of the fitted maximal effect.

What do the screens show for `Cn1cccc1C(=O)Nc1nc(-c2ccccn2)cs1`?
Rango-impB inh: -1%; Tb PFK inh: 0%; BCR signal inh: inconclusive; LMNA splice mod: inconclusive; Luc counter: 11µM*; Rango dissoc inh: -5%

Results for O=C(O)c1ccccc1NC(=O)C(Cc1ccccc1)N1C(=O)c2ccccc2C1=O (stereo not drawn) ?
Rango-impB inh: 3%; Tb PFK inh: -4%; BCR signal inh: inconclusive; Rango dissoc inh: 1%

How did COc1ccc(NS(=O)(=O)c2ccc3ccccc3c2)c2ncccc12 do in these assays?
Rango-impB inh: inconclusive; Tb PFK inh: 1%; BCR signal inh: 3.2µM*; Rango dissoc inh: -2%

What do the screens show for `COc1ccccc1NS(=O)(=O)c1ccc2ccccc2c1`?
Rango-impB inh: 2%; Tb PFK inh: -8%; BCR signal inh: -6%; Rango dissoc inh: 13%

What do the screens show for `O=C1/C(=C\c2ccco2)SC(=S)N1C1CCCCC1`?
Tb PFK inh: 4%; BCR signal inh: inconclusive

How did CC1=C(C#N)C(=O)N(C2CCS(=O)(=O)C2)C(=O)/C1=C\c1ccco1 (stereo not drawn) do in these assays?
Tb PFK inh: 15µM*; BCR signal inh: 12%

Results for CN1\C(=C/C=C/C=C/C=[N+](C)C)C(C)(C)c2ccccc21 ?
Rango-impB inh: inconclusive; Tb PFK inh: -20%; BCR signal inh: 13%; LMNA splice mod: -3%[9.22 µM]; Luc counter: 11µM*; Rango dissoc inh: inconclusive

What do the screens show for `CN1/C(=C\C=O)C(C)(C)c2ccccc21`?
Rango-impB inh: -2%; Tb PFK inh: 0%; BCR signal inh: 1%; LMNA splice mod: inconclusive; Luc counter: -3%; Rango dissoc inh: -8%

What do the screens show for `CC(=O)c1ccc2c(c1)C1C=CCC1C(C(=O)O)N2` (stereo not drawn)?
Rango-impB inh: inconclusive; Tb PFK inh: 8.5µM*; BCR signal inh: -5%; Luc counter: -9%; Rango dissoc inh: 8%

What do the screens show for `CC(=NCc1ccco1)c1c(C)[nH]n(-c2nc3ccccc3s2)c1=O`?
Rango-impB inh: 2%; Tb PFK inh: -4%; BCR signal inh: inconclusive; LMNA splice mod: 2%; Rango dissoc inh: -2%

Results for C/C(=N/NC(=O)c1cccs1)c1c(C)[nH]n(-c2nc3ccccc3s2)c1=O ?
Rango-impB inh: inconclusive; Tb PFK inh: -8%; BCR signal inh: inconclusive; LMNA splice mod: -14%; Luc counter: 10µM*; Rango dissoc inh: inconclusive

How did O=C(c1ccccc1)c1ccc(O)cc1O do in these assays?
Rango-impB inh: 58µM*; Tb PFK inh: 1%; BCR signal inh: -16%; Rango dissoc inh: 10%

Results for COc1ccc2c(c1)C(=O)CC(O)(C(F)F)O2 (stereo not drawn) ?
Rango-impB inh: -1%; Tb PFK inh: 1%; BCR signal inh: -9%; Rango dissoc inh: -5%

What do the screens show for `Cc1nn(-c2ccccc2)c(C)c1/C=N/Nc1nc2ccccc2[nH]1`?
Rango-impB inh: -1%; Tb PFK inh: -3%; BCR signal inh: -26%; LMNA splice mod: inconclusive; Luc counter: 10µM*; Rango dissoc inh: 9%

How did Cc1cc(=O)[nH]c(N/N=C/c2c(C)nn(-c3ccccc3)c2C)n1 do in these assays?
Rango-impB inh: -1%; Tb PFK inh: 1%; BCR signal inh: 4%; Luc counter: 0%; Rango dissoc inh: 23%

What do the screens show for `NS(=O)(=O)c1ccc(CCNC(=O)CCS(=O)(=O)c2ccc(Br)cc2)cc1`?
Rango-impB inh: -3%; Tb PFK inh: 15µM*; BCR signal inh: -4%; Rango dissoc inh: -14%

Results for CN(C)c1ccc(/C=C/c2ccc3ccccc3[n+]2C)cc1 ?
Rango-impB inh: 1%; Tb PFK inh: -22%; BCR signal inh: inconclusive; LMNA splice mod: inconclusive; Luc counter: inconclusive; Rango dissoc inh: 1%

What do the screens show for `CN(C)c1ccc(/C=C/c2ccc3c4ccccc4ccc3[n+]2-c2ccccc2)cc1`?
Rango-impB inh: inconclusive; Tb PFK inh: -11%; BCR signal inh: inconclusive; LMNA splice mod: inconclusive; Luc counter: 10µM*; Rango dissoc inh: -5%

What do the screens show for `O=C(Nc1ccc2c(c1)nc1n2CCSC1)c1ccco1`?
Rango-impB inh: inconclusive; Tb PFK inh: -3%; BCR signal inh: inconclusive; LMNA splice mod: inconclusive; Luc counter: 10µM*; Rango dissoc inh: inconclusive

Results for COc1cccc(C(=O)Oc2c(Br)cc(Br)cc2/C=N/NC(=O)c2cc(C)[nH]n2)c1 ?
Rango-impB inh: inconclusive; Tb PFK inh: -1%; BCR signal inh: inconclusive; Luc counter: -4%; Rango dissoc inh: 18µM*

The final three records of the section above come first, to join the parts:
What do the screens show for `CN(C)c1ccc(/C=C/c2ccc3c4ccccc4ccc3[n+]2-c2ccccc2)cc1`?
Rango-impB inh: inconclusive; Tb PFK inh: -11%; BCR signal inh: inconclusive; LMNA splice mod: inconclusive; Luc counter: 10µM*; Rango dissoc inh: -5%

What do the screens show for `O=C(Nc1ccc2c(c1)nc1n2CCSC1)c1ccco1`?
Rango-impB inh: inconclusive; Tb PFK inh: -3%; BCR signal inh: inconclusive; LMNA splice mod: inconclusive; Luc counter: 10µM*; Rango dissoc inh: inconclusive

Results for COc1cccc(C(=O)Oc2c(Br)cc(Br)cc2/C=N/NC(=O)c2cc(C)[nH]n2)c1 ?
Rango-impB inh: inconclusive; Tb PFK inh: -1%; BCR signal inh: inconclusive; Luc counter: -4%; Rango dissoc inh: 18µM*

How did O=C(Cn1c(=O)oc2ccccc21)Nc1ccc2c(c1)OCCO2 do in these assays?
Rango-impB inh: 1%; Tb PFK inh: 17%; BCR signal inh: 3%; LMNA splice mod: -4%; Luc counter: 6%; Rango dissoc inh: 9%

What do the screens show for `N#C/C(=C\c1cc(Cl)cc(Cl)c1O)C(=O)NC1CCCCC1`?
Rango-impB inh: inconclusive; Tb PFK inh: -9%[0.46 µM]; BCR signal inh: 2%; LMNA splice mod: -6%; Luc counter: -1%; Rango dissoc inh: 6.5µM*

What do the screens show for `Cc1ccsc1/C=C/c1ccc2cccc(O)c2n1`?
Rango-impB inh: -4%; Tb PFK inh: -1%; BCR signal inh: inconclusive; LMNA splice mod: inconclusive; Luc counter: -22%; Rango dissoc inh: 27%

Results for Cc1ccsc1/C=C/c1ccc2ccccc2n1 ?
Rango-impB inh: inconclusive; Tb PFK inh: -1%; BCR signal inh: inconclusive; LMNA splice mod: 6%; Luc counter: 11µM*; Rango dissoc inh: -24%

Results for N/C(=N\OC(=O)c1ccc2c(c1)OCO2)c1cccc([N+](=O)[O-])c1 ?
Rango-impB inh: -2%; Tb PFK inh: 3%; BCR signal inh: -5%; LMNA splice mod: -7%[46 µM]; Luc counter: -23%; Rango dissoc inh: -18%

What do the screens show for `COc1ccc(C(=O)O/N=C(\C)c2ccccc2)cc1`?
Rango-impB inh: 0%; Tb PFK inh: -13%; BCR signal inh: 5%; LMNA splice mod: 2%; Luc counter: 13µM*; Rango dissoc inh: 5%

How did N/C(=N\OC(=O)c1ccc(F)cc1)c1ccccc1 do in these assays?
Rango-impB inh: -1%; Tb PFK inh: -9%; BCR signal inh: inconclusive; LMNA splice mod: 0%[0.0737 µM]; Luc counter: 8.9µM*; Rango dissoc inh: 3%

Results for N/C(=N\OC(=O)c1ccccc1)c1ccccn1 ?
Rango-impB inh: -2%; Tb PFK inh: inconclusive; BCR signal inh: inconclusive; Luc counter: 1.4µM*; Rango dissoc inh: -9%
